How the values were obtained:
[1] = Destruction of oxycodone by excess sodium perborate in water; conditions: room temperature aqueous solution of excess sodium perborate
[2] = Oxidation by sodium perborate with TAED in water; conditions: TAED and sodium perborate (1:4 molar ratio), room temperature

| Structure (SMILES) | e-folding time of destruction [1] | e-folding time [2] |
| --- | --- | --- |
| COc1ccc2c3c1O[C@H]1C(=O)CC[C@@]4(O)[C@@H](C2)N(C)CC[C@]314.Cl | about 20 minutes | – |
| COc1ccc2c3c1O[C@H]1C(=O)CC[C@@]4(O)[C@@H](C2)N(C)CC[C@]314 | – | about one |

From US11679084B2, “Method and compositions for rendering opioids safe” (dated 2023)
